# According to the kinase profiling compilation of Christmann-Franck et al. (2016):
# Amino acid sequences for entries named in this document (tags omitted). A change or cut given only in a name is not applied to a line headed by its entry.
# UniProt P53779: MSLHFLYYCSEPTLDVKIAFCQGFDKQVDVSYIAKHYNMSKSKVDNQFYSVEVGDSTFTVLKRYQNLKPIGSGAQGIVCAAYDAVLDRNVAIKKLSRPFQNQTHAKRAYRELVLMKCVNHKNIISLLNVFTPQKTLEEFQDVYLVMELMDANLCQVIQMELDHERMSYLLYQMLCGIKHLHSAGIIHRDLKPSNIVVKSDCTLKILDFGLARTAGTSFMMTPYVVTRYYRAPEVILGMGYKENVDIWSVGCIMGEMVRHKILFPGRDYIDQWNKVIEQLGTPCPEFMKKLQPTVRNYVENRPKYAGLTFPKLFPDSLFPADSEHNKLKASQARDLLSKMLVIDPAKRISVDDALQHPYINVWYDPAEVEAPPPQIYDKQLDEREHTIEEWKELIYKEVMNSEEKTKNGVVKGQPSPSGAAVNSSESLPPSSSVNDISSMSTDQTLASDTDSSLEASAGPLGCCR
# UniProt P45983: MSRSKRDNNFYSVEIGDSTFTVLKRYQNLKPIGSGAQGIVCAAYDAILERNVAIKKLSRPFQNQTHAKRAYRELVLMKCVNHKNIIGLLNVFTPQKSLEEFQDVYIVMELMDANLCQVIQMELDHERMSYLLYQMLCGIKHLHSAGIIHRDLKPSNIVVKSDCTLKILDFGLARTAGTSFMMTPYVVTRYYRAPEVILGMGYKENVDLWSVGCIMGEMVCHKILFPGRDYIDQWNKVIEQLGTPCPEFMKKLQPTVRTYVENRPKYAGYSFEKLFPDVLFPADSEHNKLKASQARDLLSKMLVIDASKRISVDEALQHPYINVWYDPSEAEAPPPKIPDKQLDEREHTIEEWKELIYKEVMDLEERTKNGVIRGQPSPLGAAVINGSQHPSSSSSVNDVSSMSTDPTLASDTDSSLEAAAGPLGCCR
# Tests used:
# [1] = target: CPK1 (P.falciparum); experiment: KINOMEscan competition binding
# [2] = target: MAPK10 (human) (UniProt P53779)
# [3] = target: MAPK10 (human) (UniProt P53779); experiment: radiometric filter-binding kinase assay
# [4] = target: MAPK8 (human) (UniProt P45983); experiment: radiometric filter-binding kinase assay
SMILES,Kd [1] [nM],IC50 [2] [nM],IC50 [3] [nM],IC50 [4] [nM]
CN(C)C/C=C/C(=O)Nc1cccc(C(=O)Nc2ccc(Nc3nccc(-c4c(-c5ccccc5)nn5ccccc45)n3)cc2)c1,14,–,–,–
CN(C)C/C=C/C(=O)Nc1cccc(C(=O)Nc2ccc(Nc3nccc(-c4cccnc4)n3)cc2)c1,–,0.7,13,–
Cc1cc(NC(=O)c2cccc(NC(=O)/C=C/CN(C)C)c2)ccc1Nc1nccc(-c2cccnc2)n1,–,–,42.6,34.5
